Screen for blockers of NLRP3-driven cell death, PubChem AID 2061109 (Seoul National University).
Cells: mouse bone marrow macrophages; stimulus: LPS priming, then nigericin; dose: 5 µM; read-out: propidium iodide uptake by live imaging.
Inhibition in %: 0 = stimulated control, 100 = untreated cells; values below 0 were filed as 0. * marks the depositor's active call (above 70%). Part of the library is listed.

| smiles | inhibition (%) |
|---|---|
| O=c1[nH]c(CSC2CCC(O)CC2)nc2cc(OCC3CC3)cc(F)c12 | 46.5 |
| COc1ccc(C(CC(N)=O)N2C(=O)c3ccccc3C2=O)cc1OC1CCCC1 | 46.4 |
| NC(=O)c1ccc(Oc2ccc(CN3CCC[C@H]3c3cccnc3)cc2)c(Cl)c1 | 46.4 |
| CC(C)=CCC[C@@](C)(O)[C@H]1CC[C@]2(C)[C@@H]1[C@H](O)C[C@@H]1[C@@]3(C)CC[C@H](O)C(C)(C)[C@@H]3[C@@H](O)C[C@]12C | 46.4 |
| CC(C)(C)OC(=O)N1CC(Nc2nc3ncccc3c(=O)[nH]2)C1 | 46.2 |
| COc1cc2c(cc1OC)C(=O)C(CC1CCN(Cc3ccccc3)CC1)C2 | 46.2 |
| O=C(O)Cc1ccc(Cc2cc(-c3cccc(Cl)c3)nc(C(F)(F)F)c2)cc1 | 46.2 |
| O=C1NC(=O)C2(CCOc3ccc(F)cc32)N1 | 46.1 |
| Cc1cc(N2CCCCC2)cc(C)c1-c1csc(NC(=O)c2ccncc2)n1 | 45.8 |
| Nc1nc2cc(CC[C@H]3C[C@@H](n4ccc5c(N)ncnc54)[C@H](O)[C@@H]3O)ccc2cc1Br | 45.7 |
| COC1CCC(N(C(=O)C2CCC(C)CC2)c2cc(C3=CCCCC3)sc2C(=O)O)CC1 | 45.7 |
| CC(=O)O.CN=C(N)NCCC[C@@H](N)C(=O)O | 45.5 |
| Cc1c(-c2[nH]c3ccc(C4CCN(CC(N)=O)CC4)cc3c2C(C)C)cn2ncnc2c1C | 45.3 |
| CS(=O)(=O)c1ccc(-c2cc(C#N)nn2-c2ccc(F)cc2)cc1 | 45.2 |
| NS(=O)(=O)c1cc(-c2nn[nH]n2)c(NCc2cccs2)cc1Cl | 45.1 |
| CC(=O)Nc1ccc(C(=O)Nc2ccc(F)cc2N)cc1 | 45.0 |
| FC(F)(c1ccc2ncccc2c1)c1nnc2ccc(-c3ccncc3)nn12 | 44.8 |
| O=c1[nH]cnc2[nH]ncc12.[Na+] | 44.5 |
| C#CCOc1ccc(Nc2nc(Nc3ccc(C)c(S(N)(=O)=O)c3)ncc2F)cc1 | 44.5 |
| O=c1cc2c(=O)oc3cc(O)c(O)oc3c2c(O)c1O | 44.3 |
| CCCCCC(O)/C=C/C=O | 44.3 |
| COc1c2c(cc3c1OCO3)CCN(C)C2 | 44.1 |
| CC(=O)Oc1ccc(OC(C)=O)cc1 | 43.8 |
| Cc1cc(O)c2c(c1)C(=O)c1cccc(O[C@@H]3O[C@H](CO)[C@@H](O)[C@H](O)[C@H]3O)c1C2=O | 43.7 |
| COc1ccc2cc3[n+](cc2c1OC)CCc1cc(O)c(O)cc1-3 | 43.7 |
| C#Cc1cccc(Nc2ncnc3cc(OCCOC)c(OCCO)cc23)c1.Cl | 43.6 |
| Cc1noc(-c2ccc(-c3ccc(CC(=O)[O-])cc3)cc2)c1NC(=O)O[C@H](C)c1ccccc1.[Na+] | 43.4 |
| CC1(C)C=Cc2c(-c3c4c(c5ccccc5c3O)OC(C)(C)C=C4)c(O)c3ccccc3c2O1 | 43.3 |
| Cc1cc(Nc2cc(NC(=O)c3c(Cl)cccc3Cl)ccn2)nc(N)n1 | 43.3 |
| CNc1nc(Nc2cn(C(C)(C)C#N)nc2C)ncc1C(F)(F)F | 43.1 |
| Cl.Fc1ccc2c(CCNCc3cccc(OCC(F)(F)C(F)F)c3)c[nH]c2c1 | 43.0 |
| CCCCCCCCCC(=O)OCC(O)CO | 43.0 |
| COc1cc2ncnc(N(C)c3cccc(Br)c3)c2cc1OC | 42.9 |
| CCCCCCCCCCCCCCCCCCCCCC(=O)Nc1ccn([C@@H]2O[C@H](CO)[C@@H](O)[C@@H]2O)c(=O)n1 | 42.8 |
| CNC(=O)c1ccccc1Sc1ccc2c(/C=C/c3ccccn3)n[nH]c2c1 | 42.6 |
| COc1cc([C@@H]2Oc3c(O)cc([C@H]4Oc5cc(O)cc(O)c5C(=O)[C@@H]4O)cc3[C@H]2CO)ccc1O | 42.3 |
| CCN(C(=O)c1ccco1)c1nn(C)c2nc3cc(OC)ccc3cc12 | 42.1 |
| O=C(O)c1cc(Oc2ccc([N+](=O)[O-])cc2)cc(Oc2ccc([N+](=O)[O-])cc2)c1 | 42.0 |
| COc1ccccc1NC(=O)NCc1ccc(C(=O)NO)cc1 | 41.7 |
| CCOC(=O)c1ccc(NC2CCCCC2)c(NCc2ccccc2)c1 | 41.5 |
| COc1cc(Oc2ccnc3cc(OC)c(OC)cc23)ccc1NC(=O)NC(C)c1nccs1 | 41.4 |
| CCOC(=O)C[N+]1(C)CC[C@@H](OC(=O)[C@](O)(c2ccccc2)C2CCCC2)C1.[Br-] | 40.8 |
| CNC[C@@H](NC(=O)c1ccc(-c2nc([C@H]3CC[C@H](O)[C@@H](F)C3)cnc2N)cc1F)c1cc(F)cc(Br)c1 | 40.6 |
| CCCOc1ccc(/C=C2\SC(=O)NC2=O)cc1 | 40.2 |
| CC(C)(C)C1CCC(N(Cc2ccc(C(=O)NCCC(=O)O)cc2)C(=O)Nc2ccc(OC(F)(F)F)cc2)CC1 | 40.1 |
| COc1ccccc1[C@H](Cn1c(=O)n(C(C)(C)C(N)=O)c(=O)c2c(C)c(-c3ncco3)sc21)OC1CCOCC1 | 39.9 |
| CNC(=O)c1ccc(Oc2ccc3c(c2)CCN(C2CCC2)CC3)nc1 | 39.9 |
| COc1cc(N2CCC(O)CC2)ccc1Nc1nc(Nc2ccccc2S(=O)(=O)C(C)C)c2[nH]cnc2n1 | 39.9 |
| COc1cc2ncnc(Nc3ccc(F)c(Cl)c3)c2cc1NC(=O)/C=C/CN1CCCCC1.O | 39.8 |
| CC(C)=CCC[C@]1(C)C=Cc2c(O)c3c(c(CC=C(C)C)c2O1)O[C@]12C(=C[C@@H]4C[C@H]1C(C)(C)O[C@@]2(C/C=C(/C)C(=O)O)C4=O)C3=O | 39.6 |
| NC(=O)N1CCC(CC(=O)N2CCC([C@H]3c4ncc(Br)cc4CCc4cc(Cl)cc(Br)c43)CC2)CC1 | 39.5 |
| O=c1c(O)cccc2cc(O)c(O)c(O)c12 | 39.4 |
| CNc1cc2[nH]c(=O)n(-c3ccc(NC(=O)NS(=O)(=O)c4ccc(Cl)s4)cc3)c(=O)c2cc1F | 39.2 |
| O=C(NN=Cc1cc([N+](=O)[O-])ccc1O)c1ccc(O)cc1O | 39.0 |
| O=C(Nc1ccc(-c2ccccc2)cc1)c1no[nH]c1=O | 39.0 |
| O=C(O)c1cnc(SCCCc2ccccc2)[nH]c1=O | 38.9 |
| COc1cccc([C@@H](C)NC(=O)c2ccc(-c3ccncc3)cc2)c1 | 38.9 |
| Cc1cc(-c2[nH]c3ccc(C4CCNCC4)cc3c2C(C)C)cc(C)n1 | 38.9 |
| Cc1ccc(NC(=O)[C@H]2CCCN(C(=O)c3c(C)cccc3F)[C@H]2c2ccc(NC3CCCC3)cc2)cc1C(F)(F)F | 38.7 |
| CCC(C(=O)O)c1ccc(N2Cc3ccccc3C2=O)cc1 | 38.7 |
| CCn1c(=O)c2c(nc(/C=C/c3ccc(OC)c(OC)c3)n2C)n(CC)c1=O | 38.6 |
| Cc1cc(Nc2ccccc2)nc(Nc2ccc(NC(=O)c3ccccc3Cl)cc2)n1 | 38.6 |
| O=C(O)[C@H]1O[C@@H](Oc2cc(O)c3c(=O)cc(-c4ccc(O)cc4)oc3c2)[C@H](O)[C@@H](O)[C@@H]1O | 38.3 |
| CCN(CC)CCOc1ccc(Cc2ccccc2)cc1.O=C(O)/C=C/C(=O)O | 38.3 |
| C#CC(=O)N(c1ccc(OC)cc1OC)C(C(=O)NCC(=O)OCC)c1cccs1 | 38.2 |
| CC(C)C1=CC2=CC[C@@H]3[C@](C)(CCC[C@@]3(C)C(=O)O)[C@H]2CC1 | 38.1 |
| Fc1cc(F)c2c(c1)C[C@@H](n1c(CCNCc3ccccc3)c[nH]c1=S)CO2 | 37.9 |
| CN1C(=O)[C@@H](NC(=O)c2cc(Cc3ccccc3)on2)COc2ccccc21 | 37.9 |
| C[C@]12N[C@H](Cc3ccccc31)c1ccccc12.O=C(O)/C=C\C(=O)O | 37.9 |
| O=C1NCN(c2ccccc2)C12CCN(S(=O)(=O)c1ccc(Cl)s1)CC2 | 37.8 |
| COc1ncc(-c2nc3c(n2C(C)C)[C@H](c2ccc(Cl)cc2)N(c2cc(Cl)cn(C)c2=O)C3=O)c(OC)n1 | 37.7 |
| C[C@H]1CC[C@]2(NC1)O[C@H]1C[C@H]3[C@@H]4CC[C@H]5C[C@@H](O[C@@H]6O[C@H](CO)[C@H](O[C@@H]7O[C@H](CO)[C@@H](O)[C@H](O[C@@H]8OC[C@@H](O)[C@H](O)[C@H]8O)[C@H]7O[C@@H]7O[C@H](CO)[C@@H](O)[C@H](O)[C@H]7O)[C@H](O)[C@H]6O)CC[C@]5(C)[C@H]4CC[C@]3(C)[C@H]1[C@@H]2C | 37.6 |
| CC(C)n1nc(-c2ccc(NC(=O)Nc3cccc(C(F)(F)F)c3)cc2)c2c(N)ncnc21 | 37.6 |
| Cc1cc2c(C(C)C)c(O)c(O)c(C=O)c2c(O)c1-c1c(C)cc2c(C(C)C)c(O)c(O)c(C=O)c2c1O | 37.4 |
| O=c1oc2cc(O)ccc2s1 | 37.2 |
| COc1ccccc1N1CCN(CCCNC(=O)c2cccc3c(=O)c(C)c(-c4ccccc4)oc23)CC1 | 36.8 |
| C=C1CC[C@@H](O)CC1=C/C=C1\CCC[C@]2(C)[C@@H]([C@H](C)CCCC(C)(C)O)CC[C@@H]12.O | 36.6 |
| Cl.O=c1cc(N2CCOCC2)oc2c(-c3ccccc3)cccc12 | 36.3 |
| C=CC(=O)N1CCC(C)(Nc2cccc(C(F)(F)F)c2)C1 | 36.2 |
| COc1ccc2c3c1O[C@H]1C[C@@H](O)CC[C@@]31CCN(C)C2 | 35.6 |
| O=c1cc(-c2ccc(O)cc2)oc2c([C@@H]3O[C@H](CO)[C@@H](O)[C@H](O)[C@H]3O)c(O)cc(O)c12 | 35.6 |
| O=c1oc2ccccc2cc1[N+](=O)[O-] | 35.5 |
| Oc1cccc2nc3ccccc3nc12 | 35.2 |
| CCN[C@H]1C[C@H](C)S(=O)(=O)c2sc(S(N)(=O)=O)cc21.Cl | 35.1 |
| O=C(NC(=O)c1c(F)cccc1F)Nc1cc(Cl)c(OC(F)(F)C(F)C(F)(F)F)cc1Cl | 34.8 |
| CC(C)[C@H](O)C(=O)N[C@@H](C)C(=O)N[C@@H]1C(=O)N(C)c2ccccc2-c2ccccc21 | 34.6 |
| Cc1cc(C)c2c(c1)[C@@H](N(Cc1cc(C(F)(F)F)cc(C(F)(F)F)c1)c1nnn(C)n1)CCCN2CC1CCC(C(=O)O)CC1 | 34.6 |
| COCCNc1nc2ccc(C#CC3(O)CCCCC3)cc2n1-c1ccnc(N)n1 | 34.4 |
| FC(F)(F)c1ccccc1-c1nc(NCc2cccs2)c2ccccc2n1 | 34.2 |
| CCOC(=O)[C@H](CCc1ccccc1)N[C@H]1CS[C@H](c2cccs2)CN(CC(=O)O)C1=O.Cl | 34.0 |

Repeating the final 7 entries:

smiles | inhibition (%)
CCN[C@H]1C[C@H](C)S(=O)(=O)c2sc(S(N)(=O)=O)cc21.Cl | 35.1
O=C(NC(=O)c1c(F)cccc1F)Nc1cc(Cl)c(OC(F)(F)C(F)C(F)(F)F)cc1Cl | 34.8
CC(C)[C@H](O)C(=O)N[C@@H](C)C(=O)N[C@@H]1C(=O)N(C)c2ccccc2-c2ccccc21 | 34.6
Cc1cc(C)c2c(c1)[C@@H](N(Cc1cc(C(F)(F)F)cc(C(F)(F)F)c1)c1nnn(C)n1)CCCN2CC1CCC(C(=O)O)CC1 | 34.6
COCCNc1nc2ccc(C#CC3(O)CCCCC3)cc2n1-c1ccnc(N)n1 | 34.4
FC(F)(F)c1ccccc1-c1nc(NCc2cccs2)c2ccccc2n1 | 34.2
CCOC(=O)[C@H](CCc1ccccc1)N[C@H]1CS[C@H](c2cccs2)CN(CC(=O)O)C1=O.Cl | 34.0